Data published in US20230050440A1 (Seagen, published 2023).

Target: T1, cyno TIGIT-Fc (cynomolgus monkey)
T1 construct: not shown: Fc part
Assay: BLI (ForteBio), IgG on sensor, avid

B1: Clone 13D (antibody, V domains shown)
VH: QVQLVQSGAEVKKPGSSVKVSCKASGGTFLSSAISWVRQAPGQGLEWMGSIIPYFGKANYAQKFQGRVTITADESTSTAYMELSSLRSEDTAVYYCARGPSEVKGILGYVWFDPWGQGTLVTVSS
VL: not shown
Q: With B1 as the binder, how does the Kd read?
A: The Kd was 1.16 nM.
